Laboratory results as given in paper PMC7264150 (Nature Communications, 2020).

Target: Pl-TcdA1 (Photorhabdus luminescens, UniProt Q9RN43)
Test: glycan microarray, AlexaFluor488-labelled toxin
Assay type: binding
Settings: glycan immobilised via amine linker; pH 7.4, 200 mM NaCl

## CC(=O)N[C@H]1[C@H]([C@H](O)[C@H](O)CO)O[C@@](O[C@H]2[C@@H](O)[C@@H](CO)O[C@@H](O[C@H]3[C@H](O[C@@H]4O[C@@H](C)[C@@H](O)[C@@H](O)[C@@H]4O)[C@@H](NC(C)=O)C(O)O[C@@H]3CO)[C@@H]2O)(C(=O)O)C[C@@H]1O (stereo partly shown)
  glycan microarray, AlexaFluor488-labelled toxin: tetrasaccharides Lewis Y and sialyl-Lewis X interacted strongly with Pl-TcdA1
